Target: human α1β2γ2 GABAA receptors (Homo sapiens, UniProt P14867+P18507+P47870)
Assay: submaximal GABA currents in Ltk cells
Format: cell-based

Protein sequences, listed by entry. Tags and fused reporters are not part of them. Residues count along the entry.
UniProt P14867, 28-456: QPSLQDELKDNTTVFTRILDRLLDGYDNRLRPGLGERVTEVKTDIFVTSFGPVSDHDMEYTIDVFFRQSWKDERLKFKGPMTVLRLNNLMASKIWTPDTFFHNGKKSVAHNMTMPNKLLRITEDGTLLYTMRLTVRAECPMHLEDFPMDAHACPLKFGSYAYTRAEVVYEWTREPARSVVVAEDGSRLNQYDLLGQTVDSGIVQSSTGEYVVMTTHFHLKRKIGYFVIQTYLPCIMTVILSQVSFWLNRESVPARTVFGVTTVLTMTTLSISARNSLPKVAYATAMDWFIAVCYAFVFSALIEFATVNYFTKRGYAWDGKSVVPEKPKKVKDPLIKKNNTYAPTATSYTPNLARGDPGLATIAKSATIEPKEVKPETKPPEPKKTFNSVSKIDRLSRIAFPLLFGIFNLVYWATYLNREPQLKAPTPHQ
UniProt P18507, 40-475: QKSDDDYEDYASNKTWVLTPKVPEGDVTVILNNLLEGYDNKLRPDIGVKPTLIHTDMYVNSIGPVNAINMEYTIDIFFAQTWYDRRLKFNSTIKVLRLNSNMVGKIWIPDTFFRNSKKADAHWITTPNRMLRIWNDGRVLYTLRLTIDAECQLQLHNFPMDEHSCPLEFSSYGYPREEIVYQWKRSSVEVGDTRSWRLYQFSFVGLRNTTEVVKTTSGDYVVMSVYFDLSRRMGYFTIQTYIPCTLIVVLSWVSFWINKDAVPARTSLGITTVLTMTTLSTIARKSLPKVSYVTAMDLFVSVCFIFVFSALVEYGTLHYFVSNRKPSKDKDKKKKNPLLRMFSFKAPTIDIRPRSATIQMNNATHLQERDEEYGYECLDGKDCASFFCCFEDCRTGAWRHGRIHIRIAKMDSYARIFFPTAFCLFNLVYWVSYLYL
UniProt P47870, 25-512 limits assumed: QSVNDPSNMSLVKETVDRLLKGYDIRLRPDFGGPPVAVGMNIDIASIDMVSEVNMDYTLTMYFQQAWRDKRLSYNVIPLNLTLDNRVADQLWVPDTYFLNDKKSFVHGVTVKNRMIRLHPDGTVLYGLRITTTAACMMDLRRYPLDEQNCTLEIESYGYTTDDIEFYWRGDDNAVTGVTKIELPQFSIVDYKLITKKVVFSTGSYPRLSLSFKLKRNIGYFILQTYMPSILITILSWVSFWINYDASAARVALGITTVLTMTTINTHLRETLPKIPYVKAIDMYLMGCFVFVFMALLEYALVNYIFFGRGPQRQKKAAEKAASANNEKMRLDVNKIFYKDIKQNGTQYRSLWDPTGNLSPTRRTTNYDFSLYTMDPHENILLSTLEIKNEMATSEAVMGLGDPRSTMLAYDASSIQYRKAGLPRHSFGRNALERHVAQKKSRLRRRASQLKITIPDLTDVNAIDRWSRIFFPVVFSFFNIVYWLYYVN

CN1CCc2cc3c(cc2[C@H]1[C@@H]1OC(=O)c2c1ccc1c2OCO1)OCO3 [Bicuculline]
IC50: 0.265 µM | GABA inward current stimulation, α1β2γ2, Mean ± SEM (0.1 μmol/L): 70.5 ± 3.2 | GABA inward current stimulation, α1β2γ2, Mean ± SEM (1 μmol/L): 24.3 ± 1.7 | GABA inward current stimulation, α1β2γ2, Mean ± SEM (3 μmol/L): 8.2 ± 1.0 | GABA inward current stimulation, α1β2γ2, Mean ± SEM (30 μmol/L): 0.4 ± 0.5

Source: PMC4448990 (Pharmacology Research & Perspectives, 2015)
